Literature values as cited in US6251861A, “Treatment of cerebral infarction using cyclic hexapeptides” (Takeda Chemical Industries, Ltd., priority 1996, dated 2001).

Tested on: endothelin A receptor / endothelin B receptor / endothelin converting enzyme
Conditions: ETA: endothelin A receptor; ETB: endothelin B receptor; ECE: endothelin converting enzyme (inhibition); from the literature cited in the tables; cited from earlier work

COC(=O)C1=C(C)NC(C)=C(C(=O)O)C1c1cccc([N+](=O)[O-])c1 (stereo not shown) [CGS-27830, 1,4-Dihydro-5-methoxycarbonyl-2,6-dimethyl-4-(3-nitrophenyl)-3-pyridine-carboxylic acid]
Selectivity: ETA/ETB
